In one assay the target is AurB (Homo sapiens, UniProt Q96GD4). The assay can be described thus: Binding kinetics assay (surface plasmon resonance) AUR-B. The note with it: SPR, 22 °C. From the text: (§1) Binding Kinetics Assay wt-BTK, BTK C481S, LCK, FGFR1, FLT3, PDGFR-β, FMS, LYN, MEK1, AUR-B. ITK. VEGFR, EGFR, FGFR3, AXL, c-MET, SRC, YES, ABL, RET and IGFR1 (Surface Plasmon Resonance)
(§2) Streptavidin-coated chips (Cat. No. BR100531), disposables and maintenance kits for Biacore were purchased from Cytiva (Eindhoven, The Netherlands). Biotinylated wt-BTK enzym (Carna Biosciences, cat. no. 08-480-20N), BTK C481S (Carna Biosciences, cat. no. 08-417-20N), LCK (Carna Biosciences, cat. no. 08-470-20N), FGFR1 (Carna Biosciences, cat. no. 08-435-20N), FLT3 (Carna Biosciences, cat. no. 08-454-20N), PDGFR-β (Carna Biosciences, cat. no. 08-458-20N), FMS (Carna Biosciences, cat. no. 08-455-20N), LYN (Carna Biosciences, cat. no. 08-471-20N), MEK1 (Carna Biosciences, cat. no. 07-441-10-20N), AUR-B (Carna Biosciences, cat. no. 05-402-21N), ITK (Carna Biosciences, cat. no. 08-481-20N), VEGFR (Carna Biosciences, cat. no. 08-491-20N), EGFR (Carna Biosciences, cat. no. 08-415-20N), FGFR3 (Carna Biosciences, cat. no. 08-433-20N), AXL (Carna Biosciences, cat. no. 08-407-20N), c-MET (Carna Biosciences, cat. no. 08-451-20N), SRC (Carna Biosciences, cat. no. 08-473-20N), YES (Carna Biosciences, cat. no. 08-475-20N), ABL (Carna Biosciences, cat. no. 08-401-20N), RET (Carna Biosciences, cat. no. 08-459-20N) or IGFR1 (Carna Biosciences, cat. no. 08-441-20N) were immobilized on a streptavidin-coated chip to a level of about 8000 resonance units (RU) using Biacore buffer (50 mM Tris pH 7.5, 0.05% (v/v) Tween-20, 150 mM NaCl and 5 mM MgCl2)+1 mM TCEP. Remaining streptavidin was blocked with biocytin. Immobilization was performed at 4 °C. Subsequent assay steps were conducted at 22 °C. After changing buffer to Biacore buffer with 1% (v/v) dimethylsulfoxide (DMSO), a pre-run was performed for a period of at least 30 min at a flow rate of 30 μl/min to obtain a stable surface. The kinetic constants of the compounds were determined with single cycle kinetics with five consecutive injections with an increasing compound concentration with ranges of 3.16-316 nM. Experiments were performed with an association time of 100 s per concentration and a dissociation time of 1200 s, except for compounds with a long target residence time, such as irreversible inhibitors, where dissociation time was increased. To circumvent problems of mass transport limitation, a flow rate of 30 μl/min was used. A blank run with the same conditions was performed before the compound was injected. The SPR sensorgrams were analyzed with Biacore Evaluation Software by using a method of double referencing. First the reference channel was subtracted from the channel containing immobilized protein. Subsequently, the reference curve obtained with buffer injections was subtracted. The resulting curve was fitted with a 1:1 binding model. Compounds that bound according to an induced fit model were fitted with a two-state reaction model. The kinetic constants (ka, ka, KD) of duplicates were geometrically averaged. Target residence time (τ) for the 1:1 binding model was calculated from the dissociation constant kd with the formula T=1/kd. Target residence for an induced fit model was calculated as described (Tummino and Copeland, 2008).
Background: SPR reads the build-up and loss of mass on a sensor chip optically.

The chains behind the UniProt entries cited, without tags or fusion partners. Where a name states a change or a piece, a line headed by the entry shows the natural chain unless it says otherwise. Residues count along the entry.
UniProt Q96GD4, whole entry: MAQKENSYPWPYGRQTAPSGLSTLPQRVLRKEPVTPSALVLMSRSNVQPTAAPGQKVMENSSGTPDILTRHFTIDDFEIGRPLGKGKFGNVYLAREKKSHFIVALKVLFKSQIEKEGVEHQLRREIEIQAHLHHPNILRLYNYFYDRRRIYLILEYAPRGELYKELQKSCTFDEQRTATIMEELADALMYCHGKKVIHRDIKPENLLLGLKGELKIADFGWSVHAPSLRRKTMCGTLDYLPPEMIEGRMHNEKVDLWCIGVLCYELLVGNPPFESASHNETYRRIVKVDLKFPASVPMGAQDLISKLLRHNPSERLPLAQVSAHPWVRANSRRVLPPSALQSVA
UniProt P09619, 33-1106 limits assumed: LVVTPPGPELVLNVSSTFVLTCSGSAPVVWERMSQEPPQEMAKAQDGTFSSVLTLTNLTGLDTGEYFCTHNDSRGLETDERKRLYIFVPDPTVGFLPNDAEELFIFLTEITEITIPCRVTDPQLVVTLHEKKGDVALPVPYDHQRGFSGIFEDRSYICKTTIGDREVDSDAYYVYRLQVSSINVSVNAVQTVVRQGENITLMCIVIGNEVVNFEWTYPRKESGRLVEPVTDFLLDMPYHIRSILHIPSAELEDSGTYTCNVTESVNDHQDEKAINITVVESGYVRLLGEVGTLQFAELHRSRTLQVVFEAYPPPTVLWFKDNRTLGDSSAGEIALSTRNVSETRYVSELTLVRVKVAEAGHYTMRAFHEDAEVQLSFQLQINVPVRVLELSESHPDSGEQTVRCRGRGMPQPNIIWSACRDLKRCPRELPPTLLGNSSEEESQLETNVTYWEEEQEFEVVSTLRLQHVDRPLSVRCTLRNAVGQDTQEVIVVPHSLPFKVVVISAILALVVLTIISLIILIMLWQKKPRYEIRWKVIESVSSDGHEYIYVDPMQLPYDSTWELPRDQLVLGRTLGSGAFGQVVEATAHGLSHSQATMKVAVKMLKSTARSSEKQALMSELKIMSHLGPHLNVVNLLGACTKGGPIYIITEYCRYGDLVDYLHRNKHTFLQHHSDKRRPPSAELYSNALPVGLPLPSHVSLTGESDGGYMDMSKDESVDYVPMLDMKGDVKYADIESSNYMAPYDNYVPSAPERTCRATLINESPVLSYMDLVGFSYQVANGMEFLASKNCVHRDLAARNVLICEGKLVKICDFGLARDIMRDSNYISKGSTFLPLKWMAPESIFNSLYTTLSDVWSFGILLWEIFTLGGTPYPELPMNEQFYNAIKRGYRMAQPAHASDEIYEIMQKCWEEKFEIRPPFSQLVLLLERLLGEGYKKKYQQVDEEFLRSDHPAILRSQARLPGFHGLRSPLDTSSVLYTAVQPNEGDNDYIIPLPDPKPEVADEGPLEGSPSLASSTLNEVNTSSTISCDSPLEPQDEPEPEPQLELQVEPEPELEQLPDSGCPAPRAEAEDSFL
UniProt P35968, 20-1356 limits assumed: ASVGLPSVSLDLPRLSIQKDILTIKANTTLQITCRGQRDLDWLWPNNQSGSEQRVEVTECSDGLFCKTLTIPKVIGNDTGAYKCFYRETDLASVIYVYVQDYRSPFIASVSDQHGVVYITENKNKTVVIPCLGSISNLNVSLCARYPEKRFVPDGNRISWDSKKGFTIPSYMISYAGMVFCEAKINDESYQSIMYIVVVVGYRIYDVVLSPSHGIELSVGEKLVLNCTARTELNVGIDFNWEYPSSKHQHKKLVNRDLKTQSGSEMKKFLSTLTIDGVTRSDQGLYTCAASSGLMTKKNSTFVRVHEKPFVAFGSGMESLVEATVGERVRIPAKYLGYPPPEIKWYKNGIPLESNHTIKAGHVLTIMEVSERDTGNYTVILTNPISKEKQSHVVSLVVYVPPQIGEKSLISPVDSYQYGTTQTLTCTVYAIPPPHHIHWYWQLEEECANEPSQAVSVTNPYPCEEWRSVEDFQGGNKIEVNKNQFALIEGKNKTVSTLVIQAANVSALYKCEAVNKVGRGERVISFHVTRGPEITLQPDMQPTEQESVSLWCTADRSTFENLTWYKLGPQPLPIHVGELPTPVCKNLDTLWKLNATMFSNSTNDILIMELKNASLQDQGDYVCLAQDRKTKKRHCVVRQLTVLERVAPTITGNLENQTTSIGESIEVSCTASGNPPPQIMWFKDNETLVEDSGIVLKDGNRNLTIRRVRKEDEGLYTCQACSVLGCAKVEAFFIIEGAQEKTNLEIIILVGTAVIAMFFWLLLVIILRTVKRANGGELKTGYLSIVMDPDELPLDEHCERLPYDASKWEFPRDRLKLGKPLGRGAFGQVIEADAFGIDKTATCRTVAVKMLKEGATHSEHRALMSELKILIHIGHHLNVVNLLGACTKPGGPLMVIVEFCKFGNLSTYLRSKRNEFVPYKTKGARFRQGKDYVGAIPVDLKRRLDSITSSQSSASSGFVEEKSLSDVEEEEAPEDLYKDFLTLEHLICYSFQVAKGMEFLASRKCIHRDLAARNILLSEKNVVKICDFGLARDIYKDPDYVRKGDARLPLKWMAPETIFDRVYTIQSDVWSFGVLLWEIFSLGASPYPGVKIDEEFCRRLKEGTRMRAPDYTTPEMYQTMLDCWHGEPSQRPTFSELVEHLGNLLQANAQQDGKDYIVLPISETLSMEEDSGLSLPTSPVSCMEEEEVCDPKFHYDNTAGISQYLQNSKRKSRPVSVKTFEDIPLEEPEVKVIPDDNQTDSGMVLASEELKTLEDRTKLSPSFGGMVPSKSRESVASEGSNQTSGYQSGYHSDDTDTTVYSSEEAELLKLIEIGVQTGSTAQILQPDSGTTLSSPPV
UniProt P08069, 31-1367 limits assumed: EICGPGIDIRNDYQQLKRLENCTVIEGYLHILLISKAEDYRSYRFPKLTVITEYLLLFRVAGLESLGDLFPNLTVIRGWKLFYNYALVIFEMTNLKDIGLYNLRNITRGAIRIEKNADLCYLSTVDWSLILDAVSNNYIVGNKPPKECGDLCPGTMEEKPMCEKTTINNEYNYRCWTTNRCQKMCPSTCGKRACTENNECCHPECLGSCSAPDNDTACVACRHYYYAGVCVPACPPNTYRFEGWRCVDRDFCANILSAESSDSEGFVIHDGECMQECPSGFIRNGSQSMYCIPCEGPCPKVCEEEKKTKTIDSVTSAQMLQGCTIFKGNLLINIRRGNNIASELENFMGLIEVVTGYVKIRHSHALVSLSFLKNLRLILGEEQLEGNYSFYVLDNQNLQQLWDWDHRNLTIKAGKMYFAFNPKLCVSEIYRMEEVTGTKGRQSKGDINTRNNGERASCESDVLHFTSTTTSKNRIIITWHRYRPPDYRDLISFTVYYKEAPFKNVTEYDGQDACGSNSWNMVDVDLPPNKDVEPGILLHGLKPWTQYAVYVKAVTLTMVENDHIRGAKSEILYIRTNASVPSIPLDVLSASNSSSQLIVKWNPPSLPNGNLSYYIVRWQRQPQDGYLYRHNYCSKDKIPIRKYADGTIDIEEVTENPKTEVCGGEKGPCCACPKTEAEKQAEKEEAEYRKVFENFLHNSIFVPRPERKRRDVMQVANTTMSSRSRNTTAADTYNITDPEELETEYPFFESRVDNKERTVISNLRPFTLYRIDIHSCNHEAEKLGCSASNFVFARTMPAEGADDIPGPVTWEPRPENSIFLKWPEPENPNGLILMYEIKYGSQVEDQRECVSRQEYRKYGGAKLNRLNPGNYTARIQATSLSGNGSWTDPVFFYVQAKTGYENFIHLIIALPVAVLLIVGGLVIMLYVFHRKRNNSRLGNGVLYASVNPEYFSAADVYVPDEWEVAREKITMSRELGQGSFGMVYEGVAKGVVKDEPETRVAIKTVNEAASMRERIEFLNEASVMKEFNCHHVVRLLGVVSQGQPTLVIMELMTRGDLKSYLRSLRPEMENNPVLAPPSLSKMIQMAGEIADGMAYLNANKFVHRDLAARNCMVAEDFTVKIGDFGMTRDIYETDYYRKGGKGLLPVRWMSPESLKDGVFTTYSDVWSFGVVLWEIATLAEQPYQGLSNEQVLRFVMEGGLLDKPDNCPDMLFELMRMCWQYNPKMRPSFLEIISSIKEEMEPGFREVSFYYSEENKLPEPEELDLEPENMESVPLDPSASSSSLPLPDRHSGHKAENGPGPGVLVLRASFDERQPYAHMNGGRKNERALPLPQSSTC
UniProt Q06187, whole entry: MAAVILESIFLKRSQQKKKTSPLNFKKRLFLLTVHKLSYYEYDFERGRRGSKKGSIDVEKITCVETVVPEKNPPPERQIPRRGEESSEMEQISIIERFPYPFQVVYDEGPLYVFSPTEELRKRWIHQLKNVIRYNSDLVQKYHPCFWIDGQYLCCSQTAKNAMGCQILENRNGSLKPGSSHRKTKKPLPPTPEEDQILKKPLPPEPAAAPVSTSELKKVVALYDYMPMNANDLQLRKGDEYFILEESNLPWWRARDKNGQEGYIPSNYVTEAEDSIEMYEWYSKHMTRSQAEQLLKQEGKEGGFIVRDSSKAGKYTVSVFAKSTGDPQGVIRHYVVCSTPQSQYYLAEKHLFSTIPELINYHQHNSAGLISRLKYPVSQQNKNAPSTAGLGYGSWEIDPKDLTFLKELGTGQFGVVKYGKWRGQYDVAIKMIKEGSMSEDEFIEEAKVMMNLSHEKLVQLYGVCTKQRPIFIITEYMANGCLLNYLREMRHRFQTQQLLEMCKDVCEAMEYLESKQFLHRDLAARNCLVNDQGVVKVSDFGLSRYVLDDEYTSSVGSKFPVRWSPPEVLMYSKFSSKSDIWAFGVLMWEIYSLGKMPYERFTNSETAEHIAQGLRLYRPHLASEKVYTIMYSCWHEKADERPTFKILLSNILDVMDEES
UniProt Q06187, whole entry C481S: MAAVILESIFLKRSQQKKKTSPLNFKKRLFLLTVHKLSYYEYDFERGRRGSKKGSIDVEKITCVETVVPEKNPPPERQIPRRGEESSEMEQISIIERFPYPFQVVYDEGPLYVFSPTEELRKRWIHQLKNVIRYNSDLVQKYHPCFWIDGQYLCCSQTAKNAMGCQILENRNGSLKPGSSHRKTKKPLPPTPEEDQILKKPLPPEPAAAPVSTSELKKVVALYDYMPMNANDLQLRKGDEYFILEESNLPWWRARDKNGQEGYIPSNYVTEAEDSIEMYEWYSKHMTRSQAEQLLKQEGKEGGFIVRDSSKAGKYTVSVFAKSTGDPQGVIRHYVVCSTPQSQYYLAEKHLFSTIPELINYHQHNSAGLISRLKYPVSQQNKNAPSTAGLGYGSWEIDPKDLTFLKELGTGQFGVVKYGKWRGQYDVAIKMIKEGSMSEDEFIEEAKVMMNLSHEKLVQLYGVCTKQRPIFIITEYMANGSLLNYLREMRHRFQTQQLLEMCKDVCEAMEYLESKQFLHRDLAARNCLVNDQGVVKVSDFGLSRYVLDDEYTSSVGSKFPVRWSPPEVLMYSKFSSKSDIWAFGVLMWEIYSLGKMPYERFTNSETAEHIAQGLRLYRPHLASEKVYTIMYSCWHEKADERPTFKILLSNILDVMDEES
UniProt P42680, whole entry: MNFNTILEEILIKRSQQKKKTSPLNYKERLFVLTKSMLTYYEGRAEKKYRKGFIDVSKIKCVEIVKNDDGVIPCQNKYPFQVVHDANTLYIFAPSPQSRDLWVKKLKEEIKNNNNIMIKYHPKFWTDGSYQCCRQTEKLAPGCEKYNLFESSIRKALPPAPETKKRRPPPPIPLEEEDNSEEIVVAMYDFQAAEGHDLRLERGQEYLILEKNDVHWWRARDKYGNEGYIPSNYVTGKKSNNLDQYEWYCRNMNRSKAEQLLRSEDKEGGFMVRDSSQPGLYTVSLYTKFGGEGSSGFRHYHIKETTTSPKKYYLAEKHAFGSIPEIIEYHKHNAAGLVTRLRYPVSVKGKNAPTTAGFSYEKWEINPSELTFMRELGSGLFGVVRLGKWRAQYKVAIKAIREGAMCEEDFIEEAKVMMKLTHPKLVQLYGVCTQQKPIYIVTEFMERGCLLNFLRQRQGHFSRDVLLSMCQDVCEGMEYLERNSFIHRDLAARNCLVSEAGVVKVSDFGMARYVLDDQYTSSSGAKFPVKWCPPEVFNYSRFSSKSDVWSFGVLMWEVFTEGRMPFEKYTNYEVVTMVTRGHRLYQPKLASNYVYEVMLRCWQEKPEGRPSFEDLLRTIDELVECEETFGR

For a further assay, the target named is Fms (Homo sapiens, UniProt P07333). The assay can be described thus: Binding kinetics assay (surface plasmon resonance) FMS. The note with it: SPR, 22 °C.
From the text: as §1, §2

A further assay concerns the target PDGFrB (Homo sapiens, UniProt P09619). The assay can be described thus: Binding kinetics assay (surface plasmon resonance) PDGFR-β. The note with it: SPR, 22 °C.
From the text: as §1, §2

The next assay deals with VEGFr (Homo sapiens, UniProt P35968). Description: Binding kinetics assay (surface plasmon resonance) VEGFR. The note with it: SPR, 22 °C.
From the text: as §1
as §2, with “Immobilization was performed at 4 °C. Subsequent assay steps were conducted at 22 °C. After changing buffer to Biacore buffer with 1% (v/v) dimethylsulfoxide (DMSO), a pre-run was performed for a period of at least 30 min at a flow rate of 30 μl/min to obtain a stable surface.” left out, “Experiments were performed with an association time of 100 s per concentration and a dissociation time of 1200 s, except for compounds with a long target residence time, such as irreversible inhibitors, where dissociation time was increased. To circumvent problems of mass transport limitation, a flow rate of 30 μl/min was used. A blank run with the same conditions was performed before the compound was injected.” left out, “First the reference channel was subtracted from the channel containing immobilized protein. Subsequently, the reference curve obtained with buffer injections was subtracted. The resulting curve was fitted with a 1:1 binding model. Compounds that bound according to an induced fit model were fitted with a two-state reaction model. The kinetic constants (ka, ka, KD) of duplicates were geometrically averaged.” left out

The target of the next assay is IGFR1 (Homo sapiens, UniProt P08069). The assay can be described thus: Binding kinetics assay (surface plasmon resonance) IGFR1. The note with it: IGFR1, SPR, 22 °C. As for the experimental part: as §1
(§3) Streptavidin-coated chips (Cat. No. BR100531), disposables and maintenance kits for Biacore were purchased from Cytiva (Eindhoven, The Netherlands). […] The kinetic constants of the compounds were determined with single cycle kinetics with five consecutive injections with an increasing compound concentration with ranges of 3.16-316 nM. […] The SPR sensorgrams were analyzed with Biacore Evaluation Software by using a method of double referencing. […] Target residence time (τ) for the 1:1 binding model was calculated from the dissociation constant kd with the formula T=1/kd. Target residence for an induced fit model was calculated as described (Tummino and Copeland, 2008).

Another assay deals with BTK (Act) (Homo sapiens, UniProt Q06187). Description: Binding kinetics assay (surface plasmon resonance) wt-BTK. The note with it: SPR, 22 °C.
From the text: as §1, §2

The next assay concerns the target BTK C481S (Act) (Homo sapiens, UniProt Q06187, C481S). Description: Binding kinetics assay (surface plasmon resonance) BTK C481S. The note with it: SPR, 22 °C. The protocol:
as §1, §3

In assay [1] the test system is REC-1 mantle cell lymphoma cells. Description: Cell proliferation assay REC-1. The note with it: read-out: IC50 value, REC-1 cells, 120 hours.
In the next assay the target is Tec (Homo sapiens, UniProt P42680). The assay can be described thus: Binding kinetics assay TEC (surface plasmon resonance). The note with it: SPR, His-tagged TEC on Ni-NTA chip. The protocol: Binding Kinetics Assay TEC (Surface Plasmon Resonance)
An aliquot of N-terminal His-tagged TEC (Eurofins DiscoverX, cat. no. 14-801) was thawed, diluted to 4.8 μg/mL in pre-cooled Biacore buffer (10 mM Tris pH 7.5, 0.05% Tween, 150 mM NaCl and 5 mM MgCl2) and immobilized on a Ni-NTA chip with His-tag capturing, followed by amine-coupling. First, the surface of the chip was first washed for 420 seconds with 0.35 M EDTA, subsequently loaded with 1 mM NiCl for 420 seconds, followed by activation for 1000 seconds with a 1:1 dilution of 0.2 M 1-ethyl-3-(3-dimethylaminopropyl) carbodiimide hydrochloride (EDC) and 50 mM N-hydroxysuccinimide (NHS). His-tagged protein was immobilized on the surface until an immobilization level of 4000 RU was obtained. Remaining active groups on the sensor surface were blocked by injection of 1 M ethanolamine for 420 seconds. The immobilization procedure was performed at 22 °C. Channel 1 was immobilized as described above without injection of His-tagged protein and used as a reference channel to correct for buffer effects, other channels were immobilized as described above. After immobilization, buffer was changed to Biacore buffer containing 1% DMSO. A pre-run was performed for a period of ≥30 min at a flow rate of 30 μL/min until a stable surface was obtained. The kinetic constants of the compounds were determined with single cycle kinetics with five consecutive injections with an increasing compound concentration with ranges of 3.16-316 nM. Experiments were performed with an association time of 100 s per concentration and a dissociation time of 1200 s, except for compounds with a long target residence time, such as irreversible inhibitors, where dissociation time was increased. To circumvent problems of mass transport limitation, a flow rate of 30 μl/min was used. A blank run with the same conditions was performed before the compound was injected. The SPR sensorgrams were analyzed with Biacore Evaluation Software by using a method of double referencing. First the reference channel was subtracted from the channel containing immobilized protein. Subsequently, the reference curve obtained with buffer injections was subtracted. The resulting curve was fitted with a 1:1 binding model. Compounds that bound according to an induced fit model were fitted with a two-state reaction model. The kinetic constants (ka, […], KD) of duplicates were geometrically averaged. Target residence time (τ) for the 1:1 binding model was calculated from the dissociation constant kd with the formula T=1/kd. Target residence for an induced fit model was calculated as described (Tummino and Copeland, 2008).

pIC50, pKd: −log10 of the molar value.

What is called pKd is −log10 of the Kd, conventionally taken in molar units. Read a low pKd as a large Kd. Turning to `C[C@@H]1CCn2nc(-c3ccc(NC(=O)Nc4cccc(F)c4)cc3)c3c(N)ncc(c32)/C=C/CCOCCC(=O)N1`, the pKd on AurB is 7.30 to 8.30; on Fms it was 7.30 to 8.30; at PDGFrB, 7.30 to 8.30; on VEGFr, > 8.30. Besides, the “Target residence time Tau (τ)” value at Fms is “B (τ between 1 and 3 h)”; at PDGFrB, “A (τ between 0.2 h and 1 h)”.

As for `COc1cc(-c2ccccc2)nc2cc(-c3nn4c5c(cnc(N)c35)/C=C/CCCCCC(=O)N[C@@H]3CCC[C@@H]4C3)ccc12`, on IGFR1, the pKd was 7.30 to 8.30.

As a reminder, the pIC50 is the negative decadic logarithm of the IC50, by convention in mol/L. On to `COc1ccc(F)cc1C(=O)NCc1ccc(-c2nn3c4c(cnc(N)c24)/C=C/CCCCCC(=O)N[C@H](C)CC3)cc1`, for which the “Target residence time Tau (τ)” value is “B (τ between 1 and 3 h)” on BTK (Act); “B (τ between 1 and 3 h)” at BTK C481S (Act). The pIC50 in [1] was > 7.30.

Consider `C[C@@H]1CC(=O)N[C@@H]2CCC[C@H](C2)n2nc(-c3ccc(C(=O)Nc4cc(C(F)(F)F)ccn4)cc3)c3c(N)ncc(c32)/C=C/CN1C`, for which the “Target residence time Tau (τ)” value at BTK (Act) is “B (τ between 1 and 3 h)”; at BTK C481S (Act), “A (τ between 0.2 h and 1 h)”; on Tec, “A (τ between 0.2 h and 1 h)”. The pKd at Tec is > 8.30. Also, the negative-log IC50 (pIC50) in assay [1] is > 7.30.

The record behind these values is patent US20260382605A1, “REVERSIBLE MACROCYCLIC KINASE INHIBITORS” (published 2026).
